From PMC9032790

Test system: antibody from the 1F7-cell clone
Experiment: heterologous ic-ELISA hybridoma screening, 1F7 clone
Details: free clothianidin 50 μg/L; IMI-H-OVA 5 μg/mL

SMILES: CN/C(=N\[N+](=O)[O-])NCc1cnc(Cl)s1 [clothianidin]
- inhibition of antibody binding to IMI-H-OVA: 74.63%
